What was measured:
[1] = Survey of relative performance of fluorescent derivatizing agents against a cooling water background; format: physicochemical
From the text: In preferred embodiment the derivatizing agents are selected from those that a reasonably high "relative performance" for a given background. As noted above, a molecule is generally considered highly fluorescent when it has a fluorescent quantum efficiency, or fluorescent quantum yield, within the range of from about 0.1 to about 1.0, and a light absorbance molar extinction coefficient of at least 1,000. The magnitude of fluorescent signal, or relative fluorescence, is the product of the fluorescent quantum yield multiplied times the light absorbance molar extinction coefficient. […] The "relative performance", as this phrase is used herein, is the ratio of the relative fluorescence of a composition to the relative fluorescence of a given background medium. The fluorescence readings are typically measured at the excitation/emission wavelengths that represent major peaks for the given fluorescent tagged polymer. […] Industrial cooling waters generally have an overall higher fluorescent intensity than industrial boiler waters, and therefore a degree of polymer tagging that is reasonably high for use in boiler waters may not be sufficiently high for cooling waters, since of course the intensity of fluorescence must not be overwhelmed by the background fluorescence and the intensity of fluorescence is dependent on the concentration level of the fluorescent species. […]

[2] = test system: rats; conditions: cited from earlier work

Question: Which “Relative Intensity Value, Composition” value ([1]; 0.4 ppm (acid actives), 1,5-naphthalene disulfonic acid standard = 100%, at own fluorescence maximum) does the source give for `Nc1cc(S(=O)(=O)O)c2cccc(S(=O)(=O)O)c2c1` [2-amino-4,8-naphthalene disulfonic acid] here?
Answer: 564%

Question: What about the “Relative Performance” value ([1]; composition relative intensity / cooling water background relative intensity) of the same molecule?
Answer: 61

Question: What about the “Reported LD50 (oral/rats)” value [2] of the same molecule?
Answer: > 5.0 grams/kilogram

— patent US5260386A, “Synthesis of tagged polymers by post-polymerization (trans) amidation reaction” (Nalco Chemical Company, priority 1993, dated 1993)
